Values joined by “and” are separate entries in the source; they are usually repeats but may differ in a detail not shown here. Identical values can stand only once.

The chains behind the UniProt entries cited, without tags or fusion partners.
UniProt P23977, whole entry: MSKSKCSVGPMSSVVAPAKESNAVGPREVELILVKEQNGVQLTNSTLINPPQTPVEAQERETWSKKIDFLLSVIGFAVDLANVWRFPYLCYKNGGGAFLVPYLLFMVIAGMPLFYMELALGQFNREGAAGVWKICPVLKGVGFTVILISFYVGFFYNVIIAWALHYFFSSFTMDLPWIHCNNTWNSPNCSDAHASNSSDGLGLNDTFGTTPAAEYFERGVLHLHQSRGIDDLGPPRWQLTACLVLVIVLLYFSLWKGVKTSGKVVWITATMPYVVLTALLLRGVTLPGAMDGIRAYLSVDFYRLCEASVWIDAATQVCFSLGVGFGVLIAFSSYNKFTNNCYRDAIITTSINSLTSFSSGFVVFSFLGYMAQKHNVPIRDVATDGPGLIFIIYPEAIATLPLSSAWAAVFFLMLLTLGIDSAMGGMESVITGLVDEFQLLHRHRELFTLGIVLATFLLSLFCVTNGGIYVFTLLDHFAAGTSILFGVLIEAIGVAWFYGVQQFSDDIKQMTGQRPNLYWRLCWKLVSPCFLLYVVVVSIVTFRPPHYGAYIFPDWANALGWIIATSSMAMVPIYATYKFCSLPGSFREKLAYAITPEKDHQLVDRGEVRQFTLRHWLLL
UniProt P31652, whole entry: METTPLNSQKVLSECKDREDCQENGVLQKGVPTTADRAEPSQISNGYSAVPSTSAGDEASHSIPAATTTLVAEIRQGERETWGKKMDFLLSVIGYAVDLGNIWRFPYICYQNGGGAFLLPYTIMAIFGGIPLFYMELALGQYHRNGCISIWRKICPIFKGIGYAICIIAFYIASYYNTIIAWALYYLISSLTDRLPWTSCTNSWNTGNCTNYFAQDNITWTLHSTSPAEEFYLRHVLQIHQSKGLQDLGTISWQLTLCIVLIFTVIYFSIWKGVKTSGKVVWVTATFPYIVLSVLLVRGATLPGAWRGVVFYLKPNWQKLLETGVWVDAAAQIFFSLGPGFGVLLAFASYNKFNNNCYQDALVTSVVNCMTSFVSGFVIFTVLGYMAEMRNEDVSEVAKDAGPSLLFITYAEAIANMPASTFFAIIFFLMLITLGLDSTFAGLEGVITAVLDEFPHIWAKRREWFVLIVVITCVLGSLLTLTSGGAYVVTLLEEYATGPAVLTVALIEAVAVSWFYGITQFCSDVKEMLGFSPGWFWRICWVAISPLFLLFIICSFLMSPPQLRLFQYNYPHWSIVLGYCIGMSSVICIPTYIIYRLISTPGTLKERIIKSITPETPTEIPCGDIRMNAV
UniProt P31645, whole entry: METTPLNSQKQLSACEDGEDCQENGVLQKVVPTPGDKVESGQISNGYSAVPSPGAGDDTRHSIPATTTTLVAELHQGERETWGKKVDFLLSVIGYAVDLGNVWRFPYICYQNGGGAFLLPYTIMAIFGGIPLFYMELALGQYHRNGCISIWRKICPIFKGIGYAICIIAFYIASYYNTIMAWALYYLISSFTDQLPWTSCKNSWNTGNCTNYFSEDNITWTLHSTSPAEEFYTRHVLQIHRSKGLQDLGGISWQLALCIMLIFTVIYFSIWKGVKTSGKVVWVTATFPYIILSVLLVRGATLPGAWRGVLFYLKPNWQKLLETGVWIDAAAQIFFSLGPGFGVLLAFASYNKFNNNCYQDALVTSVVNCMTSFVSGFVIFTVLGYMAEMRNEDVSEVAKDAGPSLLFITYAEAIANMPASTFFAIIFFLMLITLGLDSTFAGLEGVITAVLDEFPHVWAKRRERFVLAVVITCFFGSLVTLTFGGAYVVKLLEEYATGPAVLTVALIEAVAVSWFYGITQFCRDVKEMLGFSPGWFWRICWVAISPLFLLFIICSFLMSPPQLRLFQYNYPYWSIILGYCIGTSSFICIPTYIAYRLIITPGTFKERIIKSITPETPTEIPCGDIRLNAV
UniProt Q01959, whole entry: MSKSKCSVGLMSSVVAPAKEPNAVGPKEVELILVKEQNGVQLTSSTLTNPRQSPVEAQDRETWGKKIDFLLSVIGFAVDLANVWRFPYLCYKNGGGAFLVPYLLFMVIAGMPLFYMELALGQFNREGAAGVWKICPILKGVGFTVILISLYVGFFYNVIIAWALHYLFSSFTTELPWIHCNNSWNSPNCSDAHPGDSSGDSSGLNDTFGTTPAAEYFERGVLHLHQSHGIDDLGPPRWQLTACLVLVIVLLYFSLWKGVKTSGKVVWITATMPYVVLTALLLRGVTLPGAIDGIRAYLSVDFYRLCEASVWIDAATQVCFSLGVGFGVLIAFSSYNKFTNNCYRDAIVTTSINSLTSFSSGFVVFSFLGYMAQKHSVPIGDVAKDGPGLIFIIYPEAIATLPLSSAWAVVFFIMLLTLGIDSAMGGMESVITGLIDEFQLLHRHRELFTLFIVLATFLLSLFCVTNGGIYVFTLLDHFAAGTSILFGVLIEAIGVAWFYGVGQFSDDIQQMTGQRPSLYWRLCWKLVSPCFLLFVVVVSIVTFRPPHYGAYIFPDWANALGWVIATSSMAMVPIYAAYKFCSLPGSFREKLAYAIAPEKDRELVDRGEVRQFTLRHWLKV

For test [1], the target named is Sodium-dependent dopamine transporter (Rattus norvegicus, UniProt P23977). The experiment in a line: Functional Uptake Assay (rDAT): Quantification of dopamine uptake was performed using synaptosomes isolated in a 0.32 M sucrose buffer from a male Wistar rat striatum. The uptake of radiolabelled dopamine by synaptosomes (20 ug of proteins/point) was allowed by incubating them for 15 minutes at 37° C. in the presence of test compounds and [3H]-dopamine (0.1 uCi/point). The experiment was performed in a deep well. Synaptosomes and [3H]-dopamine were prepared in a Krebs buffer pH 7.4 containing 25 mM NaHCO3, 11 mM glucose and 50 uM ascorbic acid. This incubation buffer was oxygenated for 5 minutes before incubation. Basal control was incubated for 15 minutes at 4° C. in order to avoid any uptake. Following this incubation, the uptake was stopped by filtration through a unifilter 96-wells GFB Packard plate washed with Krebs buffer containing 25 mM NaHCO3 in order to eliminate free [3H]-dopamine. The radioactivity associated to the synaptosomes retained onto the unifilter corresponding to the uptake was then measured with a microplate scintillation counter (Topcount, Packard) using a scintillation fluid. In kind it is subcellular.

Test [2] deals with Sodium-dependent serotonin transporter (Rattus norvegicus, UniProt P31652). The test can be described thus: Functional Uptake Assay (rSERT): Quantification of 5-HT uptake was performed using synaptosomes isolated in a 0.32M sucrose buffer from a male Wistar rat cortex. The uptake of radiolabelled 5-HT by synaptosomes (100 ug of proteins/point) was allowed by incubating them in a well for 15 min at 37° C. in presence of test compounds and [3H]5-hydroxytryptamine (serotonin; 0.1 uCi/point). […] This incubation buffer was oxygenated during 5 minutes before incubation. Basal control was incubated for 15 minutes at 4° C. in order to avoid any uptake. […] The radioactivity associated to the synaptosomes retained on the unifilter corresponding to the uptake was then measured with a microplate scintillation counter (Topcount, Packard) using a scintillation fluid. In kind it is subcellular.

Test [3] concerns the target Sodium-dependent serotonin transporter (Homo sapiens, UniProt P31645).
Test [4] concerns the target Sodium-dependent dopamine transporter (Homo sapiens, UniProt Q01959).

`CNCC1(c2ccc(Cl)c(Cl)c2)CCC(C)(O)CC1` (stereo not given): the IC50 – broadly, the concentration that inhibits the measured activity by half – in test [1] came out at 43 nM; in test [2], 42 nM.

`CNCC1(c2ccc(Cl)c(Cl)c2)CCCC(OC)C1` (stereo not given): in test [3], the half-inhibitory concentration (IC50) is 1440 nM and 2050 nM.

For the compound `CN(C)C[C@]1(c2ccc(Cl)c(Cl)c2)CCC[C@](C)(O)C1` (relative stereo), the concentration for half-maximal inhibition (IC50) was found to be 462 nM in test [4] and 2190 nM in test [3].

(Values after ChEMBL document CHEMBL5727566, “Cycloalkylamines as monoamine reuptake inhibitors” (2020).)
